Molecular target: NPFF1 (UniProt Q9GZQ6)
Assay: pEC50 of agonist-induced pathway activation (ebBRET)

Chains of the proteins cited; added tags and fusions are not shown. Lines headed by an entry give the natural chain unless they say otherwise; changes in a name come on top.
UniProt Q9GZQ6: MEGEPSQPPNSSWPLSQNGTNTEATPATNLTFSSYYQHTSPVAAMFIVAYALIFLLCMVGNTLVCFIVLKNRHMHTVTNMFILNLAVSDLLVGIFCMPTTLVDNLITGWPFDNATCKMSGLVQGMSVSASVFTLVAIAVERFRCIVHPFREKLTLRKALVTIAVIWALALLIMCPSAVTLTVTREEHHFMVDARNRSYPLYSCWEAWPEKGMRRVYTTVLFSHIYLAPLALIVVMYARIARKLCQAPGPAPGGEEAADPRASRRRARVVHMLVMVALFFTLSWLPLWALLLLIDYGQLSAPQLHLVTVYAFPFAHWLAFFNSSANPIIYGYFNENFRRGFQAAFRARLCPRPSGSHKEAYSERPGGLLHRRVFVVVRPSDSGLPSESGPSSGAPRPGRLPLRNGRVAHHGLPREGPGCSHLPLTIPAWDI

CC(C)C[C@H](NC(=O)[C@H](CC(N)=O)NC(=O)[C@@H]1CCCN1C(=O)[C@@H](N)C(C)C)C(=O)N1CCC[C@H]1C(=O)N[C@@H](CCC(N)=O)C(=O)N[C@@H](CCCN=C(N)N)C(=O)N[C@@H](Cc1ccccc1)C(N)=O [RFRP3]
Details | pEC50
pathway (G protein / arrestin sensor): G12 | 6.92
pathway (G protein / arrestin sensor): G13 | 6.69
pathway (G protein / arrestin sensor): G15 | 7.4
pathway (G protein / arrestin sensor): Gi1 | 8.05
pathway (G protein / arrestin sensor): Gi2 | 8.12
pathway (G protein / arrestin sensor): GoA | 8.78
pathway (G protein / arrestin sensor): GoB | 9.14
pathway (G protein / arrestin sensor): Gz | 10.2
pathway (G protein / arrestin sensor): βarr1/GRK2 | 7.98
pathway (G protein / arrestin sensor): βarr2 | 7.36
pathway (G protein / arrestin sensor): βarr2/GRK2 | 7.77

Source: the supplement of paper PMC9005190
